Test results published in ChEMBL document CHEMBL1128360 (J Med Chem, 1995).

Protein sequences, listed by entry. Tags and fused reporters are not part of them.
UniProt P19327, whole entry: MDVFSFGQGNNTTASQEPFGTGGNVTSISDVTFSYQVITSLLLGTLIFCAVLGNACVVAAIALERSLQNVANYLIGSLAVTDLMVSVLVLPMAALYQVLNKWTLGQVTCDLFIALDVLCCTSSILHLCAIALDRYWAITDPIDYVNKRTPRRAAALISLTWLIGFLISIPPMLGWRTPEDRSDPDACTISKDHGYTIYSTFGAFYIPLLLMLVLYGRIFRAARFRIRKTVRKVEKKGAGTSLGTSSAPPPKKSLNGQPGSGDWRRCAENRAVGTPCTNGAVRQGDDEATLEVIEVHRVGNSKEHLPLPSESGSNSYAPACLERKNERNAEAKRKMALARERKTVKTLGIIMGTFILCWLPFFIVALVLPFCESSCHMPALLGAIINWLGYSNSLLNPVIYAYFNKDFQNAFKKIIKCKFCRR

Target: 5-hydroxytryptamine receptor 1A (Rattus norvegicus, UniProt P19327)
Assay: Inhibitory affinity constant against 5-hydroxytryptamine 1A receptor

How did the pKi turn out when `O=C1CC2(CCCC2)CC(=O)N1CCCCN1CCN(c2ccc3ccccc3n2)CC1` was run?
The pKi was 7.41.

pKi: −log10 of the molar value.
